# Membrane permeability of cyclic peptides

Source: CycPeptMPDB (Li et al. 2023), which took these values from Townsend et al. 2020, doi:10.26434/chemrxiv.13335941.v1.

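Lipid, pH, incubation time, direction and concentration are not recorded in the data file. Other peptides of the study may be missing here. Peptides that the database sets to -10, its floor, are left out.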

PAMPA measures passive passage through an artificial lipid membrane. Values are log10 P with P in cm/s, so -5 is more permeable than -7.

SMILES	PAMPA (log10 cm/s)
CC(C)C[C@@H]1NC(=O)[C@H](C)NC(=O)[C@H](Cc2ccccc2)NC(=O)[C@@H](CC(C)C)NC(=O)[C@H]2CCCN2C(=O)[C@H](CC(C)C)NC1=O	-5.14
CC(C)C[C@H]1NC(=O)[C@H](C)NC(=O)[C@H](Cc2ccccc2)NC(=O)CN(Cc2ccccc2)C(=O)[C@@H]2CCCN2C(=O)[C@@H](CC(C)C)NC1=O	-5.90
CC(C)C[C@@H]1C(=O)N[C@@H](Cc2ccccc2)C(=O)N[C@@H](C)C(=O)N[C@H](CC(C)C)C(=O)N(Cc2ccccc2)CC(=O)N2CCC[C@@H]2C(=O)N1C	-6.26
CC(C)C[C@@H]1NC(=O)[C@H](C)NC(=O)[C@H](Cc2ccccc2)NC(=O)[C@H](CC(C)C)N(C)C(=O)[C@@H]2CCCN2C(=O)[C@@H](CC(C)C)N(C)C1=O	-5.48
CCCN1CC(=O)N[C@H](CC(C)C)C(=O)N(C)[C@H](CC(C)C)C(=O)N2CCC[C@@H]2C(=O)N[C@H](CC(C)C)C(=O)N[C@@H](Cc2ccccc2)C(=O)N2CCC[C@H]2C1=O	-5.31
CC(C)C[C@@H]1C(=O)N[C@@H](Cc2ccccc2)C(=O)N2CCC[C@@H]2C(=O)N[C@@H](Cc2ccccc2)CC(=O)N[C@H](CC(C)C)C(=O)N[C@H](CC(C)C)C(=O)N2CCC[C@@H]2C(=O)N1C	-5.90
CC(C)C[C@@H]1NC(=O)[C@H](CC(C)C)N(C)C(=O)[C@@H](C)N(C)C(=O)[C@H]2CCCN2C(=O)[C@H](Cc2ccccc2)NC(=O)CN(Cc2ccccc2)C(=O)[C@@H]2CCCN2C1=O	-5.71
CC(C)C[C@@H]1NC(=O)[C@@H](C)N(C)C(=O)[C@H]2CCCN2C(=O)[C@H](Cc2ccccc2)NC(=O)[C@@H](CC(C)C)N(C)C(=O)[C@@H]2CCCN2C(=O)C[C@H](Cc2ccccc2)NC1=O	-5.30
CCCN1CC(=O)N[C@@H](CC(C)C)C(=O)N[C@@H](Cc2ccccc2)CC(=O)N2CCC[C@H]2C(=O)N(C)[C@@H](CC(C)C)C(=O)N[C@@H](Cc2ccccc2)C(=O)N2CCC[C@H]2C1=O	-5.76
CC(C)C[C@@H]1C(=O)N2CCC[C@H]2C(=O)N(C)[C@H](CC(C)C)C(=O)N[C@@H](Cc2ccccc2)C(=O)N[C@@H](C)C(=O)N(C)[C@@H](CC(C)C)C(=O)N1C	-5.07
CC(C)C[C@@H]1NC(=O)[C@H]2CCCN2C(=O)CN(Cc2ccccc2)C(=O)[C@@H](CC(C)C)NC(=O)[C@H](C)NC(=O)[C@H]2CCCN2C(=O)[C@H](Cc2ccccc2)NC1=O	-6.07
CC(C)C[C@@H]1NC(=O)[C@@H](C)N(C)C(=O)[C@H]2CCCN2C(=O)[C@H](Cc2ccccc2)NC(=O)[C@H](CC(C)C)N(C)C(=O)[C@H]2CCCN2C(=O)[C@H](CC(C)C)N(C)C1=O	-5.10
CC(C)C[C@@H]1C(=O)N(C)[C@H](CC(C)C)C(=O)N2CCC[C@@H]2C(=O)N(C)[C@H](CC(C)C)C(=O)N[C@@H](Cc2ccccc2)C(=O)N[C@@H](Cc2ccccc2)CC(=O)N1C	-5.32
CC(C)C[C@@H]1NC(=O)[C@@H]2CCCN2C(=O)[C@@H](CC(C)C)N(C)C(=O)[C@H](CC(C)C)N(C)C(=O)[C@@H](C)NC(=O)[C@@H]2CCCN2C(=O)[C@H](Cc2ccccc2)NC1=O	-5.86
CC(C)C[C@@H]1NC(=O)[C@H](C)NC(=O)[C@@H]2CCCN2C(=O)[C@H](Cc2ccccc2)NC(=O)[C@H](CC(C)C)N(C)C(=O)[C@@H]2CCCN2C(=O)C[C@H](Cc2ccccc2)NC1=O	-5.86
CC(C)C[C@@H]1NC(=O)[C@H]2CCCN2C(=O)C[C@H](Cc2ccccc2)NC(=O)[C@@H](CC(C)C)NC(=O)[C@@H](C)NC(=O)[C@H]2CCCN2C(=O)[C@H](Cc2ccccc2)NC1=O	-6.87
CC(C)C[C@H]1NC(=O)[C@H](CC(C)C)N(C)C(=O)[C@@H](C)N(C)C(=O)[C@H]2CCCN2C(=O)[C@H](Cc2ccccc2)NC(=O)CN(Cc2ccccc2)C(=O)[C@H]2CCCN2C1=O	-6.03
CC(C)C[C@@H]1NC(=O)[C@@H]2CCCN2C(=O)[C@H](CC(C)C)NC(=O)[C@@H](CC(C)C)NC(=O)C[C@H](Cc2ccccc2)NC(=O)[C@@H]2CCCN2C(=O)[C@H](Cc2ccccc2)NC1=O	-5.61
CC(C)C[C@@H]1C(=O)N[C@@H](Cc2ccccc2)C(=O)N2CCC[C@H]2C(=O)N[C@@H](Cc2ccccc2)CC(=O)N(C)[C@@H](CC(C)C)C(=O)N(Cc2ccccc2)CC(=O)N2CCC[C@H]2C(=O)N1C	-5.61
CC(C)C[C@@H]1NC(=O)[C@@H](C)NC(=O)[C@H](Cc2ccccc2)NC(=O)[C@@H](CC(C)C)NC(=O)[C@@H]2CCCN2C(=O)[C@@H](CC(C)C)NC1=O	-6.22
CCCN1CC(=O)N(C)[C@@H](CC(C)C)C(=O)N[C@H](CC(C)C)C(=O)N2CCC[C@@H]2C(=O)N(C)[C@@H](CC(C)C)C(=O)N[C@@H](Cc2ccccc2)C1=O	-4.83
CC(C)C[C@@H]1NC(=O)[C@@H](CC(C)C)N(C)C(=O)C[C@H](Cc2ccccc2)NC(=O)[C@@H]2CCCN2C(=O)[C@H](Cc2ccccc2)NC(=O)[C@H](CC(C)C)N(C)C(=O)[C@H]2CCCN2C1=O	-5.37
CC(C)C[C@@H]1NC(=O)[C@H]2CCCN2C(=O)CN(Cc2ccccc2)C(=O)[C@@H](CC(C)C)NC(=O)C[C@H](Cc2ccccc2)NC(=O)[C@H]2CCCN2C(=O)[C@H](Cc2ccccc2)NC1=O	-6.07
CC(C)C[C@@H]1NC(=O)[C@H](C)NC(=O)[C@H](Cc2ccccc2)NC(=O)[C@@H](CC(C)C)N(C)C(=O)[C@H]2CCCN2C(=O)[C@H](CC(C)C)N(C)C1=O	-5.41